This assay addresses activation domain-fused yeast RPB4 protein (RPB4 in JG4-5) (yeast (Saccharomyces cerevisiae)) (UniProt P20433). Description: two-hybrid interaction trap in yeast, beta-galactosidase assay with and without activation domain-fused RPB4.

“And” between values parts separate entries of the source, which are not always exact repeats. Equal entries are not always repeated.

As for LexA-hsRPB7 fusion protein, the degree of enhancement of activation (beta-galactosidase assay) was 2 fold and 3 fold.

For the origin of these results see patent US5770717.
